According to BindingDB's records for doi:10.1021/jm0208119 (Westfälische Wilhelms-Universität Münster, 2002):

Target: T1, Histone deacetylase 2b (Zea mays, UniProt Q94F81)
T1 sequence (Q94F81 whole entry): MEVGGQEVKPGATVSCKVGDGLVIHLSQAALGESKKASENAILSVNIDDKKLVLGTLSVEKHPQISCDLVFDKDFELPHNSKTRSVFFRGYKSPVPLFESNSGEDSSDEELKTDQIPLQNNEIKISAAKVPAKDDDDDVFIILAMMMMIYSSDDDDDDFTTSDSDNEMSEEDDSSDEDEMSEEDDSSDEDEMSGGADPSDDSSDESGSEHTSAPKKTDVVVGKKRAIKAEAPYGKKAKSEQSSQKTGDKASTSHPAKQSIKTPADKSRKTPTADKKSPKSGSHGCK
Assay: Inhibition of in vitro enzyme activity measured in a highly purified maize Histone deacetylase 2 preparation

SMILES: CC(=CC(C)C=CC(=O)NO)C(=O)c1ccc(N(C)C)cc1 (stereo unspecified)
- IC50: 3 nM
